# CycPeptMPDB entries from one study

Collected by the curators of CycPeptMPDB (Li et al. 2023) from Townsend et al. 2020, doi:10.26434/chemrxiv.13335941.v1.

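Conditions beyond the assay type are not listed; see the original paper. The list need not hold all peptides of the study. Entries at the database's floor value (log10 P of -10) are not listed.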

PAMPA measures passive passage through an artificial lipid membrane.
Permeability is given as log10 of P in cm/s; higher (less negative) is more permeable.

compound,PAMPA (log10 cm/s)
CC(C)C[C@H]1NC(=O)[C@H](C)N(C)C(=O)[C@H](Cc2ccccc2)NC(=O)CN(Cc2ccccc2)C(=O)[C@H]2CCCN2C(=O)CN(Cc2ccccc2)C1=O,-5.72
CC(C)C[C@@H]1C(=O)N(C)[C@@H](CC(C)C)C(=O)N2CCC[C@@H]2C(=O)N(C)[C@@H](CC(C)C)C(=O)N[C@@H](Cc2ccccc2)C(=O)N[C@@H](C)C(=O)N1C,-5.00
CC(C)C[C@@H]1NC(=O)[C@H]2CCCN2C(=O)[C@@H](CC(C)C)NC(=O)[C@@H](CC(C)C)NC(=O)[C@@H](C)NC(=O)[C@H]2CCCN2C(=O)[C@H](Cc2ccccc2)NC1=O,-6.96
CC(C)C[C@@H]1NC(=O)[C@H](C)N(C)C(=O)[C@H]2CCCN2C(=O)[C@H](Cc2ccccc2)NC(=O)[C@H](CC(C)C)N(C)C(=O)[C@@H]2CCCN2C(=O)CN(Cc2ccccc2)C1=O,-4.97
CC(C)C[C@@H]1C(=O)N(Cc2ccccc2)CC(=O)N2CCC[C@H]2C(=O)N[C@H](CC(C)C)C(=O)N[C@@H](Cc2ccccc2)C(=O)N[C@@H](C)C(=O)N1C,-6.40
CC(C)C[C@@H]1NC(=O)[C@@H](CC(C)C)NC(=O)[C@@H](C)N(C)C(=O)[C@H]2CCCN2C(=O)[C@H](Cc2ccccc2)NC(=O)CN(Cc2ccccc2)C(=O)[C@H]2CCCN2C1=O,-6.05
CCCN1CC(=O)N[C@@H](CC(C)C)C(=O)N[C@@H](CC(C)C)C(=O)N2CCC[C@@H]2C(=O)N(C)[C@@H](CC(C)C)C(=O)N[C@@H](Cc2ccccc2)C(=O)N2CCC[C@@H]2C1=O,-5.52
CC(C)C[C@@H]1NC(=O)[C@H]2CCCN2C(=O)CN(Cc2ccccc2)C(=O)[C@@H](CC(C)C)N(C)C(=O)[C@H](C)N(C)C(=O)[C@H]2CCCN2C(=O)[C@H](Cc2ccccc2)NC1=O,-6.17
CC(C)C[C@H]1C(=O)N[C@@H](Cc2ccccc2)CC(=O)N2CCC[C@H]2C(=O)N(C)[C@@H](CC(C)C)C(=O)N[C@@H](Cc2ccccc2)C(=O)N2CCC[C@H]2C(=O)N[C@@H](C)C(=O)N1C,-5.78
CC(C)C[C@@H]1C(=O)N2CCC[C@@H]2C(=O)N(Cc2ccccc2)CC(=O)N[C@@H](Cc2ccccc2)C(=O)N2CCC[C@@H]2C(=O)N[C@H](C)C(=O)N(C)[C@H](CC(C)C)C(=O)N1C,-5.27
CC(C)C[C@@H]1C(=O)N[C@H](CC(C)C)C(=O)N2CCC[C@H]2C(=O)N(C)[C@H](CC(C)C)C(=O)N[C@@H](Cc2ccccc2)C(=O)N[C@H](C)C(=O)N1C,-5.58
CC(C)C[C@H]1NC(=O)[C@H](CC(C)C)N(C)C(=O)C[C@H](Cc2ccccc2)NC(=O)[C@H](Cc2ccccc2)NC(=O)CN(Cc2ccccc2)C(=O)[C@@H]2CCCN2C1=O,-5.48
CC(C)C[C@@H]1NC(=O)[C@@H](C)N(C)C(=O)[C@H](Cc2ccccc2)NC(=O)CN(Cc2ccccc2)C(=O)[C@@H]2CCCN2C(=O)[C@H](CC(C)C)NC1=O,-5.77
CC(C)C[C@@H]1NC(=O)[C@@H]2CCCN2C(=O)[C@H](CC(C)C)NC(=O)[C@@H](CC(C)C)N(C)C(=O)[C@H](C)NC(=O)[C@H](Cc2ccccc2)NC1=O,-5.79
CC(C)C[C@@H]1NC(=O)CN(Cc2ccccc2)C(=O)C[C@H](Cc2ccccc2)NC(=O)[C@H]2CCCN2C(=O)[C@H](Cc2ccccc2)NC(=O)[C@@H](CC(C)C)N(C)C(=O)[C@@H]2CCCN2C1=O,-5.42
CC(C)C[C@@H]1NC(=O)[C@H]2CCCN2C(=O)CN(Cc2ccccc2)C(=O)[C@H](CC(C)C)NC(=O)[C@H](C)NC(=O)[C@H]2CCCN2C(=O)[C@H](Cc2ccccc2)NC1=O,-6.22
CC(C)C[C@H]1NC(=O)[C@@H]2CCCN2C(=O)[C@@H](CC(C)C)NC(=O)[C@H](CC(C)C)N(C)C(=O)[C@H](C)N(C)C(=O)[C@H](Cc2ccccc2)NC1=O,-4.88
CCCN1CC(=O)N(C)[C@@H](CC(C)C)C(=O)N[C@@H](CC(C)C)C(=O)N2CCC[C@@H]2C(=O)N[C@@H](CC(C)C)C(=O)N[C@@H](Cc2ccccc2)C(=O)N2CCC[C@@H]2C1=O,-5.81
CC(C)C[C@@H]1NC(=O)[C@H](C)N(C)C(=O)[C@H]2CCCN2C(=O)[C@H](Cc2ccccc2)NC(=O)CN(Cc2ccccc2)C(=O)[C@H]2CCCN2C(=O)[C@@H](CC(C)C)NC1=O,-5.68
CC(C)C[C@@H]1C(=O)N2CCC[C@H]2C(=O)N(C)[C@H](CC(C)C)C(=O)N[C@@H](Cc2ccccc2)C(=O)N2CCC[C@@H]2C(=O)N[C@H](C)C(=O)N(C)[C@@H](CC(C)C)C(=O)N1C,-5.14
CC(C)C[C@@H]1C(=O)N[C@@H](Cc2ccccc2)C(=O)N2CCC[C@H]2C(=O)N[C@@H](C)C(=O)N(Cc2ccccc2)CC(=O)N[C@@H](Cc2ccccc2)CC(=O)N2CCC[C@@H]2C(=O)N1C,-5.15
CC(C)C[C@H]1NC(=O)[C@@H]2CCCN2C(=O)CN(Cc2ccccc2)C(=O)[C@@H](CC(C)C)NC(=O)[C@H](C)NC(=O)[C@H]2CCCN2C(=O)[C@H](Cc2ccccc2)NC1=O,-6.27

The first 4 entries again:

| compound | PAMPA (log10 cm/s) |
|---|---|
| CC(C)C[C@H]1NC(=O)[C@H](C)N(C)C(=O)[C@H](Cc2ccccc2)NC(=O)CN(Cc2ccccc2)C(=O)[C@H]2CCCN2C(=O)CN(Cc2ccccc2)C1=O | -5.72 |
| CC(C)C[C@@H]1C(=O)N(C)[C@@H](CC(C)C)C(=O)N2CCC[C@@H]2C(=O)N(C)[C@@H](CC(C)C)C(=O)N[C@@H](Cc2ccccc2)C(=O)N[C@@H](C)C(=O)N1C | -5.00 |
| CC(C)C[C@@H]1NC(=O)[C@H]2CCCN2C(=O)[C@@H](CC(C)C)NC(=O)[C@@H](CC(C)C)NC(=O)[C@@H](C)NC(=O)[C@H]2CCCN2C(=O)[C@H](Cc2ccccc2)NC1=O | -6.96 |
| CC(C)C[C@@H]1NC(=O)[C@H](C)N(C)C(=O)[C@H]2CCCN2C(=O)[C@H](Cc2ccccc2)NC(=O)[C@H](CC(C)C)N(C)C(=O)[C@@H]2CCCN2C(=O)CN(Cc2ccccc2)C1=O | -4.97 |